# The entries are a selection whose mix differs from that of the whole data set. Some results for these compounds are left out of this collection, so the calls shown say nothing about other tests. Calls of active or inactive are those of the source.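 Rule for the calls: active = inhibition above 30% in each of the two pooled mixtures holding the compound, so the lower value exceeds 30%; inactive = the rest.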
# Experiment: blockers of serum C3 deposition on LPS – biochemical, ELISA, human serum, orthogonally pooled compounds, primary screen (AID 1235);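 note: 0% = serum in Mg-EGTA without compound and 100% = EDTA serum blank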
# Details: Human serum alternative complement pathway, LPS-coated ELISA, tested in compound mixtures, at 5 µM, active compounds read high
# Summary of the method: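 Assay system: human serum alternative complement pathway, C3 deposition on LPS-coated wells; Dosing: 5 µM per compound in ten-compound mixtures; Detection: Anti-C3 ELISA, OD 450 nm; Buffer or medium: Mg2+-EGTA GVB++ buffer containing human serum at 1:15 dilution; Timing: 1 h at 37 °C; Replication: two different pools per compound.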
row,SMILES,inhibition
1,O=C(OC1CN2CCC1CC2)C(CO)(c1ccccc1)c1ccccc1 (configuration not stated),inactive: 4.63%
2,CN(C)c1cccc(C(=O)NCC2(N(C)C)CCCCC2)c1,inactive: 6%

# From PubChem BioAssay AID1235 (PCMD, 2008)
